In article PMC5541792, “Simultaneous Determination of 11 Compounds in Gualou Guizhi Granule and Pharmacokinetics Study by UPLC-MS/MS” (Journal of Analytical Methods in Chemistry, 2017):

Assay: Stability of analytes in rat plasma samples (method validation)
Assay type: in vitro ADME
Conditions: high QC nominal concentration, n = 6
Experimental: Stability of the analytes from plasma samples was performed by determining three different concentrations (low, middle, and high samples) in six replicates under different conditions. It included short-term stability which was assessed by keeping samples at room temperature (25°C) for 24 h, stability which was measured using samples stored at 4°C for 24 h, and freeze-thaw stability that was determined after three freeze-thaw cycles at −80°C.

| Freeze-thaw stability (3 cycles) Mean (three freeze-thaw cycles at −80°C) [%] | SMILES | Stability (24 h at room temperature) Mean (25°C for 24 h) [%] |
| --- | --- | --- |
| – | O=C(/C=C/c1ccc(O)cc1)c1ccc(O)cc1O [Isoliquiritigenin, isoliquiritigenin] | 100.94 |
| 107.48 | C[C@@]12C[C@@]3(O)O[C@@H](O1)[C@]1(COC(=O)c4ccccc4)[C@H]3C[C@@]12O[C@@H]1O[C@H](CO)[C@@H](O)[C@H](O)[C@H]1O [Paeoniflorin, paeoniflorin] | – |
